Only a part is listed here, and it is no random draw. Some of these compounds have results that are not shown, active ones among them. Inconclusive results are not listed. The source made the active and inactive calls. Calls follow the shape of the dose curve; as a rule, active = well fitted cell-killing curve with a large enough effect; inconclusive = small, poorly fitted or top-dose-only effect, or effect the other way, or another doubt; inactive = no such curve, though single readings can be large or run the other way.

This assay in a line: qHTS for induction of synthetic lethality in tumor cells producing 2HG: qHTS for the HT-1080-IDH1KD cell line.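 Also: 0% = DMSO wells and -100% = cell-free medium wells.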 To be noted: HT-1080 IDH1 knockdown viability, ATP luminescence, 48 h; at 46.1 µM (top of the series).
As for `C=CCN1CCN(CCOC(=O)C(O)(c2ccccc2)c2ccccc2)CC1`, the activity, negative = toxicity was inactive: 0.233%. The result for `CC(C)N1C(=O)CC2(CCN(CCOC(=O)C(O)(c3ccccc3)c3ccccc3)CC2)C1=O` reads inactive: 5.45%.

The values are drawn from PubChem BioAssay AID686971 (National Center for Advancing Translational Sciences (NCATS), 2013).
